Experimental data published in PubChem BioAssay (EPA / NIEHS).
The list shows a part of the results, in another mix than the full data. Calls of active or inactive are those of the source. How the source made its calls: active means hit-call score of the fitted dose curve at least 0.9, where 1 is the maximum; inactive means score below 0.9.

Sequences of proteins named here, by UniProt entry; tags and fusion partners are left off.
UniProt Q9UNQ0, whole entry: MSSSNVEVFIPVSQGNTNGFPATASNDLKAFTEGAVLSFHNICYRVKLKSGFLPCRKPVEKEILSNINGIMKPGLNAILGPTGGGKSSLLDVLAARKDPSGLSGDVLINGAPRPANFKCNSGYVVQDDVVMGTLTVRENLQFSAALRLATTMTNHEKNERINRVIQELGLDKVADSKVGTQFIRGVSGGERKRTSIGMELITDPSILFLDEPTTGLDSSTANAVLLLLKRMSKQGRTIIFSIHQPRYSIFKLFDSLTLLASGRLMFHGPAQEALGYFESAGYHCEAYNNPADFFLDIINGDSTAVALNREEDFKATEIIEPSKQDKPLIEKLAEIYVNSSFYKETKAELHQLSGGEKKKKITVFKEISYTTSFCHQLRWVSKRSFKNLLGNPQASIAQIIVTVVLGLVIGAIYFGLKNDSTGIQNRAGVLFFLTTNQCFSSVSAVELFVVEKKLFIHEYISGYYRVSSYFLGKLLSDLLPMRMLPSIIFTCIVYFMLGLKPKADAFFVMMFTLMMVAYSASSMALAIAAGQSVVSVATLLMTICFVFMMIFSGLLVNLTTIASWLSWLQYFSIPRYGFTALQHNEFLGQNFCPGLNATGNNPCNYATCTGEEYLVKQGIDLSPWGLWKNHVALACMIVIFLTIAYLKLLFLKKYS

Key:
Conditions in all cases: actives raise or lower the signal; mRNA level, 48 h
[1] = read-out: Broad substrate specificity ATP-binding cassette transporter ABCG2 (Homo sapiens) (UniProt Q9UNQ0); assay: LTEA_HepaRG_ABCG2: Life Technologies and Expression Analysis (LTEA) Assay for ABC Transporter (ABCG2) using HepaRG (AID 2283465)
Protocol: LTEA_HepaRG is a cell based, multiplexed-readout assay that uses HepaRG, a human liver cell line, with measurements taken at 48 hours after chemical dosing on a 96-well plate.LTEA_HepaRG_ABCG2 is one of 102 assay component(s) measured in the LTEA HepaRG cell culture assay. It is a marker of Steatosis/NR mediated transport.Data from the assay component LTEA_HepaRG_ABCG2 was analyzed into 1 endpoint. This assay endpoint, LTEA_HepaRG_ABCG2, was analyzed with bidirectional fitting relative to DMSO as the negative control and baseline of activity. Using a type of inducible reporter, measures of mRNA induction for gain or loss-of-signal activity can be used to understand regulation of transcription factor activity. To generalize the intended target to other relatable targets, this assay endpoint is annotated to the transporter intended target family, where the subfamily is ABC transporter.
A total of 1060 chemcials from the ToxCast library were tested in eight-point concentration-response experiments. Cell culture and cytotoxicity assays were conducted at Thermo Fisher Scientific's Custom Services facility (Madison, WI). A single lot of human HepaRG cells (Thermo Fisher Scientific, Frederick, MD) was used for the cell culture experiments. 96-well format collagen type I coated plates of human HepaRG cells were prepared using established methods. Briefly, cryopreserved HepaRG cells were thawed, plated at a density of approximately 100,000 cells/well in HepaRG Thaw, Plate, and General Purpose media (HPRG770, Thermo Fisher Scientific), and incubated for 48 hours. 0.5% DMSO was selected as vehicle control to balance the requisite need of DMSO in HepaRG cultures to maintain differentiation (for example, baseline metabolism, proportions of hepatocytes vs. cholangiocytes), while enabling further hepatic receptor pathway activation (for example, PXR and CAR) in response to chemical exposure. 48 hours after plating, the culture medium was replaced with HepaRG Serum-Free Incudtion Media. Cells were exposed to each test chemical in duplicate and maintained in CO2 incubators for another 48 hours. Chemical plates were thawed to room temperature and 200x concentrations of treatment groups were prepared. 8-point conentration-reponse curves were made with the highest exposure at 100 uM, followed by half-log dilutions, all in 0.5% DMSO. Each test plate contained variouse controls, induction positive controls (1mM phenobarbital), cytotoxicity positive controls ([…] aflatoxin B1), vehicle controls (0.5% DMSO), and total lysis controls (0.5% DMSO). Cell morphology images were taken using an Essen IncuCyte FLR automated microscope, with six 96-well plates imaged in about 24 minutes. Images were captured and exported and JPEG files. Spent culture media was transfered to black-well plates for the LDH assay, and remaining media was sorted at -80 C for later use. Cells were treated with RLT buffer and frozen until shipped for gene expression analysis. Total RNA was isolated from the cell suspension in 75 uL of Buffer RLT (Qiagen, Germantown, MD 20874) by Quintiles/Expression Analysis (Durham, NC) using a custom isolation procedure. Total RNA from each plate well was transferred to a preamplification plate. Fluidigm's 96.96 Dynamic ArrayTM (Fluidigm, Amsterdam, the Netherlands) technology was used for gene expression analyses by quantitative reverse transcription polymerase chain reaction (qRT-PCR, performed by Quintiles/Expression Analysis, Durham, NC)89. […]

[2] = read-out: ATP-citrate lyase (ACLY), ACLY (gene 47); assay: LTEA_HepaRG_ACLY: Life Technologies and Expression Analysis (LTEA) Assay for ATP-citrate lyase (ACLY) using HepaRG (AID 2283466)
Outline: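 qRT-PCR readout of ACLY transcript after 48 h chemical treatment of HepaRG cells; expression normalized to three housekeeping genes. Eight-point half-log series, highest 100 uM, 0.5% DMSO vehicle. Gain or loss fitted against DMSO baseline.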

[3] = read-out: Peroxisomal acyl-coenzyme A oxidase 1 (ACOX1) gene, ACOX1 (gene 51); assay: LTEA_HepaRG_ACOX1: Life Technologies and Expression Analysis (LTEA) Assay for Peroxisomal acyl-coenzyme A oxidase 1 (ACOX1) gene using HepaRG (AID 2283467)
Outline: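 HepaRG, 48 h chemical exposure, 8-pt half-log series from 100 uM top, 0.5% DMSO vehicle, duplicates. Readout: ACOX1 mRNA by Fluidigm qRT-PCR, housekeeping-normalized; bidirectional fit vs DMSO baseline.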

[4] = read-out: Alkaline Phosphatase, Placental (ALPP) gene, ALPP (gene 250); assay: LTEA_HepaRG_ALPP: Life Technologies and Expression Analysis (LTEA) Assay for Alkaline Phosphatase, Placental (ALPP) gene using HepaRG (AID 2283468)
Outline: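 Using human liver HepaRG cells, chemicals are tested in duplicate over 48 h at half-log concentrations topping at 100 uM; phenobarbital 1 mM serves as induction control. ALPP mRNA change by qRT-PCR, bidirectional fit against vehicle.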

[5] = read-out: Bcl-2 (BAD) gene, BAD (gene 572); assay: LTEA_HepaRG_BAD: Life Technologies and Expression Analysis (LTEA) Assay for Bcl-2 (BAD) gene using HepaRG (AID 2283469)
Outline: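 HepaRG, 48 h exposure, 8-pt half-log curve from 100 uM in 0.5% DMSO, duplicates. Readout: TaqMan qRT-PCR for BAD mRNA, housekeeping-normalised (ACTB/GAPDH/POLR2A); gain or loss fitted against DMSO baseline.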

[6] = read-out: Bcl-2 (BAX) gene, BAX (gene 581); assay: LTEA_HepaRG_BAX: Life Technologies and Expression Analysis (LTEA) Assay for Bcl-2 (BAX) gene using HepaRG (AID 2283470)
Outline: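 Gene expression measured by Fluidigm qRT-PCR with three housekeeping genes for normalisation. HepaRG cells, plated 48 h beforehand, treated 48 h at up to 100 uM (8-point, half-log) in 0.5% DMSO. Bidirectional fitting versus DMSO.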

[7] = read-out: adenosine kinase (ADK) gene, ADK (gene 132); assay: LTEA_HepaRG_ADK: Life Technologies and Expression Analysis (LTEA) Assay for adenosine kinase (ADK) gene using HepaRG (AID 2283471)
Outline: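 Differentiated HepaRG cells dosed 48 h in serum-free induction medium, 0.5% DMSO vehicle, eight half-log concentrations from 100 uM, in duplicate. ADK mRNA by TaqMan qRT-PCR normalised to ACTB, GAPDH, POLR2A; bidirectional fit versus DMSO.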

[8] = read-out: Alpha-fetoprotein (AFP) gene, AFP (gene 174); assay: LTEA_HepaRG_AFP: Life Technologies and Expression Analysis (LTEA) Assay for Alpha-fetoprotein (AFP) gene using HepaRG (AID 2283472)
Outline: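 AFP transcript measured by TaqMan qRT-PCR with three housekeeping genes for normalization, after 48 h chemical treatment of HepaRG cells (top 100 uM, half-log steps, 0.5% DMSO). Gain or loss fitted against vehicle.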

BCL2L11 (gene 10018) = assay: LTEA_HepaRG_BCL2L11: Life Technologies and Expression Analysis (LTEA) Assay for Bcl-2 (BCL2L11) gene using HepaRG (AID 2283473)
Outline: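 Human hepatic HepaRG cultures are treated 48 h with test chemicals (maximum 100 uM, 0.5% DMSO vehicle). Expression of BCL2L11 is measured by qRT-PCR against ACTB, GAPDH and POLR2A, with activity in either direction scored relative to vehicle.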

[9] = read-out: Apolipoprotein A-V (APOA5) gene, APOA5 (gene 116519); assay: LTEA_HepaRG_APOA5: Life Technologies and Expression Analysis (LTEA) Assay for Apolipoprotein A-V (APOA5) gene using HepaRG (AID 2283474)
Outline: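 Concentration-response of APOA5 expression in HepaRG: eight half-log doses to 100 uM, 48 h, qRT-PCR normalized to ACTB/GAPDH/POLR2A, bidirectional fitting with 0.5% DMSO as baseline.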

Measured: outcome

O=[N+]([O-])c1cccc([N+](=O)[O-])c1
inactive: [1] | [2] | [3] | [4] | [5] | [6] | [7] | [8] | BCL2L11 (gene 10018) | [9]

CC(C)OP(C)(=O)OC(C)C
inactive: [1] | [2] | [3] | [4] | [5] | [6] | [7] | [8] | BCL2L11 (gene 10018) | [9]

Cc1cccc([N+](=O)[O-])c1[N+](=O)[O-]
inactive: [1] | [2] | [3] | [4] | [5] | [6] | [7] | [8] | BCL2L11 (gene 10018) | [9]

Cc1c([N+](=O)[O-])cccc1[N+](=O)[O-]
inactive: [1] | [2] | [3] | [4] | [5] | [6] | [7] | [8] | BCL2L11 (gene 10018) | [9]

Cc1ccc([N+](=O)[O-])cc1[N+](=O)[O-]
inactive: [1] | [2] | [3] | [4] | [5] | [6] | [7] | [8] | BCL2L11 (gene 10018) | [9]
